Columns and labels:
[1] = target: Ba/F3-EGFR-D770_N771insSVD cells (Homo sapiens, UniProt P00533, DUP768-770, cells depend on it); assay: Ba/F3 cell survival assay, EGFR D770_N771insSVD; details: read-out: BA/F3 (insSVD) IC50; prior art compounds of WO 2016/120196; Table 5
[2] = target: EGFR with insertion SVD between D770 and N771 (mutEGFR D770_N771insSVD) (Homo sapiens, UniProt P00533, DUP768-770); assay: Exon20-Mutant-EGFR(D770_N771insSVD) kinase assay (TR-FRET); format: biochemical; details: read-out: mutEGFR (D770_N771insSVD) kinase assay IC50; prior art compounds of WO 2016/120196; Table 5
Ba/F3-EGFR-WT cells = Ba/F3-EGFR-WT cells (Homo sapiens, UniProt P00533); assay: Ba/F3 cell survival assay, wild type EGFR; details: read-out: BA/F3 (wild type) IC50; prior art compounds of WO 2016/120196; Table 5

Chains of the proteins cited; added tags and fusions are not shown. A line that says so, or that is headed by a name, gives the form on record, which may keep a tag or linker. Residues count along the entry.
UniProt P00533, with tags, fused parts or gaps DUP768-770: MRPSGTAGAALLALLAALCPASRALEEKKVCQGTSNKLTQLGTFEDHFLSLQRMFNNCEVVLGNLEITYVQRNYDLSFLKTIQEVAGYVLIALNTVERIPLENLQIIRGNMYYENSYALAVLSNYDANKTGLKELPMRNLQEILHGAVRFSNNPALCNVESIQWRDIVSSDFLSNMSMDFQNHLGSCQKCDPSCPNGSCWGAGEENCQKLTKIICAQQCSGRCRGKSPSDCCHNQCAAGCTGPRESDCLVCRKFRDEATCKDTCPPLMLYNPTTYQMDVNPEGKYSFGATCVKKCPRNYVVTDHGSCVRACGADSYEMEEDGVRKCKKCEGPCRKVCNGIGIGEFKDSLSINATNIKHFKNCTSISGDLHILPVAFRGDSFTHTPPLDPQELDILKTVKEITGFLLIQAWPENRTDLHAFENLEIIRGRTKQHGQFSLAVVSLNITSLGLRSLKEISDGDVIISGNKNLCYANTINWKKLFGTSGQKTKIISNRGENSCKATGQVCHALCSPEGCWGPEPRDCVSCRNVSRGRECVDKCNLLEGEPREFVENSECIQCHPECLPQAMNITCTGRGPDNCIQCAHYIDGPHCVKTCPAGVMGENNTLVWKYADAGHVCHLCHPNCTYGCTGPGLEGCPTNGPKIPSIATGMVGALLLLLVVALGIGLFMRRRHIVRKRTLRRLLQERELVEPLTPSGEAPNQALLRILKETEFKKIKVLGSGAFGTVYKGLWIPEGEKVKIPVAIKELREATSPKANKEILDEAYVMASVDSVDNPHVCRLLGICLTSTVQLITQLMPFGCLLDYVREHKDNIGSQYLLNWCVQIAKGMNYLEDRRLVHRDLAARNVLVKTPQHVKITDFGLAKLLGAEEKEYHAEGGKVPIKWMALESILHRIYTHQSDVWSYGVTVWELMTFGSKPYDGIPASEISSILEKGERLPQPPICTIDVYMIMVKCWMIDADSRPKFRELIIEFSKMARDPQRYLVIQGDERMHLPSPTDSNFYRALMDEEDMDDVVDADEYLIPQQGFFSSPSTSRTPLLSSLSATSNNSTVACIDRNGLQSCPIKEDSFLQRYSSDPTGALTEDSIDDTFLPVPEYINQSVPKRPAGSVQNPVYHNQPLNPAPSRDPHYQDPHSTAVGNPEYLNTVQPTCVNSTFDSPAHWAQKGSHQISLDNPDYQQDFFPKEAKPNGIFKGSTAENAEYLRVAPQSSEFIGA
UniProt P00533, whole entry: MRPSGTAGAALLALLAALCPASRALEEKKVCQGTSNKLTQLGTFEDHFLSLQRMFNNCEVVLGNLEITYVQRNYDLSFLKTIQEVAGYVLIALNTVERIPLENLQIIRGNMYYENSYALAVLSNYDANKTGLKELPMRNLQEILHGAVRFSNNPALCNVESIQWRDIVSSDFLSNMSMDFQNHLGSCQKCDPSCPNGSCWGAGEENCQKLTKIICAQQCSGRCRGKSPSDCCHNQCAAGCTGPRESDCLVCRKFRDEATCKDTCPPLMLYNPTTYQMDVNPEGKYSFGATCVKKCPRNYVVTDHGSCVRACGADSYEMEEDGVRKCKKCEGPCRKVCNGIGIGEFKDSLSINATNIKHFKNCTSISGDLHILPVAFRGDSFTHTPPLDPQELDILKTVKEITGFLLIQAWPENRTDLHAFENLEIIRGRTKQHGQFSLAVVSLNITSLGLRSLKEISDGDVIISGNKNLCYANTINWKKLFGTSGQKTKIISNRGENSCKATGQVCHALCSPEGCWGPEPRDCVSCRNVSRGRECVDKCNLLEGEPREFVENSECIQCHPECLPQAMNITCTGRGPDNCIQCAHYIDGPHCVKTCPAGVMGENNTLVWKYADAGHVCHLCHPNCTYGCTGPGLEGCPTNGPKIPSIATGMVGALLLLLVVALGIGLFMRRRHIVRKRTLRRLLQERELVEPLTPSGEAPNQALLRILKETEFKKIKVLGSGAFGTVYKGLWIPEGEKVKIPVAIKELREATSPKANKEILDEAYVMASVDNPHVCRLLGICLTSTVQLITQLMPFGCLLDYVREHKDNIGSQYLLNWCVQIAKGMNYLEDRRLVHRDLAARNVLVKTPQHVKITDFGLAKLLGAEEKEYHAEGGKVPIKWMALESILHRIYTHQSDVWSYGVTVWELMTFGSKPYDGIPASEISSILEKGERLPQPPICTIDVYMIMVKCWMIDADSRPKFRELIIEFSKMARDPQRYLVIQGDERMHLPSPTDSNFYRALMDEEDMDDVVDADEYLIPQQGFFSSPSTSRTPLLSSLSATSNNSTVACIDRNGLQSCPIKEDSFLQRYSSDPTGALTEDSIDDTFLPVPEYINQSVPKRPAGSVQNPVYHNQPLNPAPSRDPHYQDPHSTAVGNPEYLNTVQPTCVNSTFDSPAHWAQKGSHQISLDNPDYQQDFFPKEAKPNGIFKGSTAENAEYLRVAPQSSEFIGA
UniProt P00533, 669-1210 with tags or gaps DUP768-770 limits assumed: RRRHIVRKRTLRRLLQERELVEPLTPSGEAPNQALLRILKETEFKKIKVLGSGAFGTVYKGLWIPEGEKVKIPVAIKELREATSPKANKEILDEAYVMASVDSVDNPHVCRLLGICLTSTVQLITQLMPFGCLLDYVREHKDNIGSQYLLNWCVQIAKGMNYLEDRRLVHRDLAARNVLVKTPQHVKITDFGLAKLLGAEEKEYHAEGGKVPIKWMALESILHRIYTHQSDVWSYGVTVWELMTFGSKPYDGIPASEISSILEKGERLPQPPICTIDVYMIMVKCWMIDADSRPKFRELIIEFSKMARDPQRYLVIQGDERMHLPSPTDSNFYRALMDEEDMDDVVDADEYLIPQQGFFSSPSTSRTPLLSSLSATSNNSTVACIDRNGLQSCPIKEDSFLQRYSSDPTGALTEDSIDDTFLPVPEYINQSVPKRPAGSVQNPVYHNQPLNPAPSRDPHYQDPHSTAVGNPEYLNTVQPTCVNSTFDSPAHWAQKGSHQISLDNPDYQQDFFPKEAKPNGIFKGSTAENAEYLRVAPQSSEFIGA

Row | SMILES | GI50 [1] | IC50 [2] | GI50 (Ba/F3-EGFR-WT cells)
1 | CC1(C)Cc2[nH]c(-c3ccncc3)c(Nc3ccccc3)c2C(=O)N1 | > 1000 nM | 200 nM | 1530 nM
2 | O=C1NCCc2[nH]c(-c3ccncc3OCC3CC3)c(Nc3ccc(F)cc3)c21 | > 2000 nM | – | –
3 | COCCOc1cnccc1-c1[nH]c2c(c1Nc1ccc(F)c(F)c1)C(=O)NCC2 | > 2000 nM | – | –
4 | O=C1NCCc2[nH]c(-c3ccncc3OCC(F)F)c(Nc3cccc(F)c3)c21 | > 2000 nM | – | –
